## Yeast mating assay 2: variants of the scFv Ab-91

The target is the same throughout: PDVDLGDISGINAS, from the HR2 region of SARS-CoV-2 spike.

Each scFv is VL, three GGGGS repeats, VH, as in the parent Ab-91, and differs from it in the CDRs of the heavy chain only.
VL: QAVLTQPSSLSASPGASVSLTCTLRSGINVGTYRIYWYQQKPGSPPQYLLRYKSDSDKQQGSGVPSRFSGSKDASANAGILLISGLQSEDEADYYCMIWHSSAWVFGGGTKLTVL
VH: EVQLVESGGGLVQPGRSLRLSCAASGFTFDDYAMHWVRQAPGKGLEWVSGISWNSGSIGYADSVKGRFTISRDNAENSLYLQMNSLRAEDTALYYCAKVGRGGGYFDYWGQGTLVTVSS

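AAYL51 was designed without a model: most single CDR substitutions and a random sample of double and triple ones. AlphaSeq pools MATa yeast showing the antibodies with MATalpha yeast showing the peptide. The frequency of each diploid, read from paired DNA barcodes, reflects how well the two displayed proteins bind. The ratio of observed to expected reads was calibrated, replicate by replicate, on BCL2-family standards whose Kd was known from biolayer interferometry. Each pool was mated in three replicate cultures.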

Substitutions are numbered in sequence along the VH above, starting at 1 (not Kabat).
All variants listed here change G104 of the VH, counted from its first residue.
Values are apparent Kd, the geometric mean of the replicates that gave a signal; lower means stronger binding.
Where no diploid with the target was found in any replicate, the entry reads "nd": below detection, most likely a poor binder, though not proof of it.
The list is sorted by this average, lowest first, undetected variants last.
Background: pairings of library AAYL51 with three empty control strains gave a value in 21% of cases (median 34 µM, 5th percentile 1.8 µM). Values in that range, when seen in few replicates, are hard to tell from nonspecific mating.
For reference, the parent read 72 nM as the reference entry and 7.5 nM as a member of this library.

For S55T/I58K/G104A, the assay gave 2.2 nM (3 of 3 replicates). With T28H/G104F the result was 6.0 nM (3 of 3 replicates). With G104T the result was 25 nM (3 of 3 replicates). For A61Y/G104V/Y108D, the assay gave 4.7 µM (3 of 3 replicates). With G26E/I58G/G104Y the result was 5.8 µM (1 of 3 replicates). The variant G104I showed 6.8 µM (3 of 3 replicates).

For H35K/G104C, the assay gave 7.8 µM (1 of 3 replicates). With H35K/D62K/G104P the result was 8.6 µM (1 of 3 replicates). For G103F/G104S, the assay gave 9.7 µM (1 of 3 replicates). With Y32P/W53G/G104E the result was 15 µM (2 of 3 replicates). The variant G56Y/G102W/G104Q gave 15 µM (1 of 3 replicates). For Y32Q/G102P/G104V, the assay gave 36 µM (2 of 3 replicates).

The variant T28W/G104Q/D107L gave 41 µM (1 of 3 replicates). The variant A33L/R101Y/G104S gave 41 µM (1 of 3 replicates). With N54W/V99R/G104M the result was 46 µM (3 of 3 replicates). For F27E/I58S/G104W, the assay gave 53 µM (1 of 3 replicates). The variant A33Y/K65L/G104I showed 79 µM (3 of 3 replicates). For R101N/G104M, the assay gave 88 µM (1 of 3 replicates).

For S52N/W53Q/G104A, the assay gave 120 µM (2 of 3 replicates). The variant I58W/G102Q/G104T showed 120 µM (2 of 3 replicates). The variant G103R/G104A/Y105M showed 130 µM (2 of 3 replicates). The variant M34P/G100M/G104D gave 180 µM (1 of 3 replicates). With S55M/A61G/G104R the result was 190 µM (1 of 3 replicates). The variant G50N/G100R/G104I showed 460 µM (3 of 3 replicates).

The variant F29W/G104P/D107G showed 650 µM (1 of 3 replicates). The variant D30C/D31S/G104K gave 1.3 mM (2 of 3 replicates). The variant G50H/S63P/G104A showed nd (0 of 3 replicates). With G50N/G104H/F106C the result was nd (0 of 3 replicates). With G104H the result was nd (0 of 3 replicates). The variant S52V/V99Q/G104V gave nd (0 of 3 replicates).

The variant S55T/G56W/G104I showed nd (0 of 3 replicates). The variant W53Q/G104P/Y108L showed nd (0 of 3 replicates). The variant Y32D/G104W showed nd (0 of 3 replicates). The variant D31T/H35F/G104V gave nd (0 of 3 replicates). The variant G104C showed nd (0 of 3 replicates). The variant V64Q/G104V showed nd (0 of 3 replicates).

The variant D31L/G59D/G104P showed nd (0 of 3 replicates). The variant G50S/V64Q/G104W showed nd (0 of 3 replicates).

From the list, the first 3 with no signal in any replicate:

changes,Kd (apparent),detected
G50H/S63P/G104A,nd,0 of 3
G50N/G104H/F106C,nd,0 of 3
G104H,nd,0 of 3

Source: Engelhart et al. 2022 (doi:10.1038/s41597-022-01779-4), MIT Lincoln Laboratory and A-Alpha Bio; data file from the FLAb repository.